Results reported in US20230233696A1, “TRIANTENNARY N-ACETYLGALACTOSAMINE MODIFIED HYDROXYL POLYAMIDOAMINE DENDRIMERS AND METHODS OF USE THEREOF” (Ashvattha Therapeutics, Inc., priority 2019, published 2023).
Where two headings read alike, the source gives them in different places.

What was measured:
[1] = in vitro drug release under plasma (pH7.4, PBS) and intracellular conditions (pH5.5, esterase); type: in vitro ADME; details: plasma physiological conditions (pH7.4, PBS), 18 days
Method: The drug release profile of both the conjugates was evaluated under plasma (pH7.4, PBS) and intracellular conditions (pH5.5, esterase).

[2] = human plasma, 37° C., 2 days
[3] = mouse plasma, 37° C., 2 days
[4] = rat plasma, 37° C., 2 days

Substance	drug release [1]	drug released [2] [%]	drug released [3] [%]	drug released [4] [%]
dendrimer-GalNAc (4-5)-telmisartan amide (6-7) [D-Tel]	less than 2%	3	3	3
dendrimer-triantennary GalNAc(4-5)-telmisartan (7-8) [D-TelB]	14%			
